Molecules are shown by their SMILES. This is a selection; strong and weak results do not stand in their true shares. Calls of active or inactive are those of the source.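 Rule for the calls: active = inhibition above the mean inhibition of all tested compounds plus 3 SD (cut at about 73% in these data); inactive = the rest.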

Protein sequences, listed by entry. Tags and fused reporters are not part of them.
UniProt O00482, whole entry, looked up: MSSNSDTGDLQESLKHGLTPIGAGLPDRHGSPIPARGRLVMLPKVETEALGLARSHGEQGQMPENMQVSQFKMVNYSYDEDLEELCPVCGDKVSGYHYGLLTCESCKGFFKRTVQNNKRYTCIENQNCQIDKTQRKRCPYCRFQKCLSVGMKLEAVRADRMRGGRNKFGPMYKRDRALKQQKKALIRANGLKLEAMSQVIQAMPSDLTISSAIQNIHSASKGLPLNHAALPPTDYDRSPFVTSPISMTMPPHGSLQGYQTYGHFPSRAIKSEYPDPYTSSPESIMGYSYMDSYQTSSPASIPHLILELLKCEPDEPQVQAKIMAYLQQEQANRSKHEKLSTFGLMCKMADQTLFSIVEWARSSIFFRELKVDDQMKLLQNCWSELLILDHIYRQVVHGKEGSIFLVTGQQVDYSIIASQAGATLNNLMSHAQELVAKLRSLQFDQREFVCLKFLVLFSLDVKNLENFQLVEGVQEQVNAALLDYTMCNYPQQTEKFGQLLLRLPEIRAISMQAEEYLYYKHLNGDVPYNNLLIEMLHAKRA

In the assay the target is Nuclear receptor subfamily 5 group A member 2 (Homo sapiens) (UniProt O00482). Description: LRH-1 (NR5A2) inverse agonists, primary screen, cell-based, luminescence, HEK293T, StAR-luciferase reporter (AID 602396).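 Note: 0% = DMSO wells and 100% = reporter-only cells lacking LRH-1.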 To be noted: LRH-1 transfected, 24 h, at 3.6 µM, active compounds read high.
`COc1cc(C2NCCC3(OCCO3)C2(C)C)cc(OC)c1OC` (stereo unspecified): the inhibition is inactive: -0.54%. For `CCOP(=O)(Nc1cccc2ccccc12)OCC`, the inhibition is inactive: -0.1%.

With `Nc1cccc2c([As](=O)(O)O)cccc12`, the inhibition was inactive: -28.2%. Consider `Cc1ccc(NCCc2c([N+](=O)[O-])cc([N+](=O)[O-])cc2[N+](=O)[O-])cc1`, for which the inhibition is inactive: -1.35%. Under `CCCOP(=S)(Nc1nc(N)cc(=O)[nH]1)OCCC` stands inactive: -8.87%.

Take `O=[As](O)(c1cccc(O)c1)c1cccc(O)c1`: the inhibition was inactive: 3.74%. `Cc1cccc(OCC(=O)OC2CN3CCC2CC3)c1` (stereo unspecified): the inhibition was inactive: -16.9%. In the case of `O=C(OC1CN2CCC1CC2)c1ccc(Cl)cc1` (stereo unspecified), the inhibition is inactive: -4.15%. Under `COc1cc(C(=O)NCC2(N3CCOCC3)CCCCC2)cc(Cl)c1OC(C)C` stands inactive: 0.23%.

As for `O=[As](O)(O)c1cccnc1`, the inhibition was inactive: 3.77%. The figure for `CS(=O)(=O)c1ccc(Cl)c(NC(=O)COC(=O)C(O)(c2ccccc2)c2ccccc2)c1` is inactive: 11.4%; for `N#CCCN(C(=O)COC(=O)C(O)(c1ccccc1)c1ccccc1)c1ccc(F)cc1` it is inactive: 1.29%; for `CCOP1(=S)c2c(C)nn(CCC#N)c2N=C(c2ccc(F)cc2)N1C` (stereo unspecified) it is inactive: -23.2%. Regarding `CN(C(=O)Cc1ccccc1)[C@@H]1CC[C@]2(CCCO2)C[C@H]1N1CCCC1`, the inhibition was inactive: -11.3%. For `CN(C)C(=O)c1cc([N+](=O)[O-])cc2c1-c1c(cc([N+](=O)[O-])cc1[N+](=O)[O-])C2=O`, the inhibition is inactive: 7.77%. For the molecule `O=[N+]([O-])c1ccc2c(c1)nnn2O`, the inhibition was inactive: 7.95%. Turning to `CN(C(=O)Cc1ccc(Cl)c(Cl)c1)[C@H]1CC[C@@]2(CCCO2)C[C@@H]1N1CCCC1`, the inhibition is inactive: -12%.

For the molecule `NC(=O)Nc1ccc([As](=O)(O)O)cc1`, the inhibition is inactive: -25%. Regarding `O=C(O)COc1ccc([As](=O)(O)O)cc1[N+](=O)[O-]`, the inhibition is inactive: 13.6%. The figure for `Nc1ccccc1[As](=O)(O)c1ccccc1` is inactive: -4.81%; for `CCOP1(=S)c2c(C)nn(CCC#N)c2N=C(c2ccccc2F)N1C` (stereo unspecified) it is inactive: -1.94%; for `O=P(Nc1nccs1)(c1ccccc1)c1nc2ccccc2s1` (stereo unspecified) it is inactive: 14.3%. The figure for `O=P(Nc1nccs1)(Oc1ccccc1)Oc1ccccc1` is inactive: 8.12%; for `CS(=O)(=O)c1cc([N+](=O)[O-])c2no[n+]([O-])c2c1` it is inactive: -9.68%. As to `Nc1cccc([As](=O)(O)c2ccccc2)c1`, the inhibition is inactive: 3.87%. Under `NS(=O)(=O)c1cccc(NC(=O)COC(=O)C(O)(c2ccccc2)c2ccccc2)c1` stands inactive: 14.8%; under `O=P1(Nc2ccc(Br)cn2)COc2ccccc2OC1`, inactive: -1.91%; under `O=[As](O)(c1cccs1)c1cccs1`, inactive: 16.8%. For the molecule `Cc1ccc(OCC(=O)OC2CN3CCC2CC3)cc1` (stereo unspecified), the inhibition is inactive: -8.64%. Regarding `Cc1ccc(S(=O)(=O)N(CCCN)CCCc2c(C)nc(N)[nH]c2=O)cc1`, the inhibition is inactive: -38.7%.

With `O=P1(Nc2ncccn2)COc2ccccc2OC1`, the inhibition is inactive: 3.12%. Consider `CN(C)C1(CNC(=O)c2ccc(S(C)(=O)=O)cc2)CCCCC1`, for which the inhibition is inactive: 11.2%. Under `O=C(/C=C/c1ccccc1)OC1CN2CCC1CC2` (stereo unspecified) stands inactive: 10.7%.

Take `CCCC1OP(=O)(Nc2ccccc2)OCC1CC` (stereo unspecified): the inhibition was inactive: 19.8%.

As for `Cc1nn(-c2ccccc2)c2c1P(=O)(N1CCOCC1)N(C)C(c1ccccc1)=N2` (stereo unspecified), the inhibition was inactive: -13.6%.

As to `Cc1ccc(C(=O)OC2CN3CCC2CC3)cc1` (stereo unspecified), the inhibition was inactive: -15.6%. The figure for `CC1CCC(C(C)C)C(OP(=O)(Nc2ccccn2)c2ccccc2)C1` (stereo unspecified) is inactive: 15.1%; for `CN(C(=O)Cc1ccc(Cl)c(Cl)c1)[C@@H]1CCCC[C@H]1N1CCCC1` it is inactive: -30.9%; for `CC(C)/C=N\N=C(\N)N[N+](=O)[O-]` it is inactive: -7.09%. As for `CC1(CBr)Cn2c(nc3ccccc3c2=O)S1` (stereo unspecified), the inhibition is inactive: -4.91%. Consider `COc1ccccc1CNC(=O)COC(=O)C(O)(c1ccccc1)c1ccccc1`, for which the inhibition is inactive: -15.6%. Regarding `Clc1n[nH]nc1-c1nn[nH][15n]1`, the inhibition was inactive: 11.7%. As to `O=P1(N(CCCl)CCCl)NCCC(C(F)(F)F)O1` (stereo unspecified), the inhibition is inactive: 3.84%.

For `CC(C)(C)C(=O)NC(Sc1ncccn1)C(Cl)(Cl)Cl` (stereo unspecified), the inhibition is inactive: 15.4%.

For `CCC1=CC2Cc3nc4ccc(Cl)cc4c(N)c3C(C1)C2` (stereo unspecified), the inhibition was inactive: 9.48%. On to `O=P1(Nc2ccccn2)COc2ccccc2OC1`, for which the inhibition was inactive: 3.64%. Take `CCOP(=O)(NC(=NC(C)c1ccccc1)NC(C)c1ccccc1)OCC` (stereo unspecified): the inhibition is inactive: 8.33%. Turning to `CN(CCCl)Cc1cc(Cl)c(NC2=NCCN2)c(Cl)c1`, the inhibition was inactive: 7.88%. In the case of `CCOP(=O)(Nc1ccc(C)cn1)OCC`, the inhibition is inactive: 2.25%.

`CCC(C)N(CC(C)C)C(=S)SC(NC(C)=O)C(Cl)(Cl)Cl` (stereo unspecified): the inhibition was inactive: -4.87%. Turning to `O=C(OC1CN2CCC1CC2)c1cccc([N+](=O)[O-])c1` (stereo unspecified), the inhibition was inactive: 4.69%. Take `CSc1ccc(Nc2c([N+](=O)[O-])cc([N+](=O)[O-])cc2[N+](=O)[O-])cc1`: the inhibition is inactive: 28.2%.

For `CCOC(=O)c1ccc(NC(=O)C(C)(CCl)SC)cc1` (stereo unspecified), the inhibition was inactive: -41.4%. As for `O=C(O)C(=O)c1ccc(N(CCCl)CCCl)cc1`, the inhibition is inactive: 7.02%.

As for `O=C(COc1ccccc1)OC1CN2CCC1CC2` (stereo unspecified), the inhibition is inactive: 5.02%. Turning to `O=C(Nc1ccncc1[N+](=O)[O-])c1ccc([N+](=O)[O-])cc1[N+](=O)[O-]`, the inhibition is inactive: 20.6%. Consider `COP1(=S)c2c(C)nn(CCC#N)c2N=C(c2ccc(F)cc2)N1C` (stereo unspecified), for which the inhibition was inactive: 17%. In the case of `COC(=O)C1(C)COP(=O)(N2CCCC2)OC1` (stereo unspecified), the inhibition is inactive: 8.75%. With `Cc1cc(SC(NC=O)C(Cl)(Cl)Cl)ncn1` (stereo unspecified), the inhibition is inactive: -12.1%.

Turning to `O=P(Nc1ccccn1)(c1cccc2ccccc12)c1cccc2ccccc12`, the inhibition is inactive: 12.2%. Take `O=[N+]([O-])c1ccc(Nc2ccc(Oc3ccc([N+](=O)[O-])cc3[N+](=O)[O-])cc2)c([N+](=O)[O-])c1`: the inhibition was inactive: -13.4%. As for `CCOC(=O)Nc1cccc([As](=O)(O)O)c1`, the inhibition was inactive: -11.4%.

In the case of `COP(=O)(OC)N1CC1c1ccccc1` (stereo unspecified), the inhibition is inactive: 9.75%. On to `CCCCOc1ccc(C(=O)NCC2(N3CCCCC3)CCCCC2)cc1OC`, for which the inhibition was inactive: -49.4%. For `Cc1cc(SC(NC(=O)c2ccccc2)C(Cl)(Cl)Cl)nc(C(C)C)n1` (stereo unspecified), the inhibition was inactive: 19.3%.

As to `O=C(O)C(O)c1ccc(N(CCCl)CCCl)cc1` (stereo unspecified), the inhibition is inactive: 13.6%. Under `CCOC(=O)Nc1ccc([As](=O)(O)O)c(O)c1` stands inactive: 10%. For `CC1CCNP(=O)(N(CCCl)CCCl)O1` (stereo unspecified), the inhibition was inactive: -9.71%.

For the molecule `O=C(OC1CN2CCC1CC2)c1cccc2[nH]cnc12` (stereo unspecified), the inhibition was inactive: -25%. For `CCN(CC)C(=S)SC(NC=O)C(Cl)(Cl)Cl` (stereo unspecified), the inhibition is inactive: 6.78%. As to `CC(C)NC(=O)NP(=O)(Oc1ccccc1)Oc1ccccc1`, the inhibition is inactive: 0.91%.

On to `O=[N+]([O-])c1cc([N+](=O)[O-])c(-c2ccn[nH]2)s1`, for which the inhibition was inactive: 33.4%. As to `ClCCSc1nnc(-c2cccnc2)o1`, the inhibition was inactive: -15.3%. Turning to `CC(C)c1ccc(OP(=O)(Nc2ccccn2)Oc2ccccc2F)cc1` (stereo unspecified), the inhibition is inactive: 7.46%. For `COC(=O)C1(C)COP(=O)(N2CCCCCC2)OC1` (stereo unspecified), the inhibition is inactive: -5.73%.

Take `Cc1ccc(OP(=O)(Nc2ccc([N+](=O)[O-])cn2)Oc2ccc(C)cc2)cc1`: the inhibition is inactive: -1.89%.

As for `[N-]=[N+]=NC1CCCCC1NC(=O)c1cc([N+](=O)[O-])cc([N+](=O)[O-])c1` (stereo unspecified), the inhibition was inactive: -4.87%. `Cc1ccc2nc3c(c(C)c2c1)CC(C(Cl)Cl)S3` (stereo unspecified): the inhibition was inactive: -55.6%. The figure for `C[As](=O)(O)c1cccc(C(=O)O)c1` is inactive: -3.51%; for `O=[As](O)(c1ccc(O)cc1)c1ccccc1O` it is inactive: 3.09%; for `COc1cc(C(=O)NCC2(N3CCOCC3)CCCCC2)ccc1OCC(C)C` it is inactive: 3.42%. Take `O=[N+]([O-])c1ccc(-c2cc([N+](=O)[O-])c(O)c([N+](=O)[O-])c2)cc1`: the inhibition is inactive: 1.14%.

For `O=[N+]([O-])c1cc(Oc2ccc([N+](=O)[O-])cc2C(F)(F)F)cc([N+](=O)[O-])c1`, the inhibition is inactive: 24.7%. Take `COc1ccc(N/C(=N/P(=O)(N2CCOCC2)N2CCOCC2)N2CCOCC2)cc1`: the inhibition was inactive: 22.6%. Under `O=P1(N(CCCl)CCCl)OCCCN1CCCl` (stereo unspecified) stands inactive: -16.7%; under `O=P1(N(CCCl)CCCl)Nc2ccccc2N1`, inactive: -109%; under `COc1ccc2nc(NP(=O)(c3ccccc3)c3ccccc3)sc2c1`, inactive: 14.9%. `COc1cc(I)ccc1[As](=O)(O)O`: the inhibition is inactive: -15%.

Turning to `Cc1c2c(nc3ccccc13)SC(C(Cl)Cl)C2` (stereo unspecified), the inhibition was inactive: -8.42%. In the case of `O=C(OC1CN2CCC1CC2)C12CC3CC(CC(C3)C1)C2` (stereo unspecified), the inhibition was inactive: -2.45%. Regarding `Cc1cc(=O)[nH]c(N[N+](=O)[O-])n1`, the inhibition is inactive: 1.08%. On to `O=[N+]([O-])C1C(O)C(O)C([N+](=O)[O-])C(O)C1O` (stereo unspecified), for which the inhibition was inactive: 25.9%.

As to `Oc1ccccc1CNc1ccccn1`, the inhibition was inactive: 2.23%. For the molecule `O=C(NC(Sc1ccncn1)C(Cl)(Cl)Cl)c1ccccc1` (stereo unspecified), the inhibition is inactive: -3.37%.

`CC(C)CC(=O)NC(Sc1ccc(Cl)cc1)C(Cl)(Cl)Cl` (stereo unspecified): the inhibition was inactive: 16.1%. Turning to `Nc1cc(N)c2nonc2c1[N+](=O)[O-]`, the inhibition was inactive: -2.15%. Under `Clc1ccc(Cl)c(NC2=NCC(CBr)S2)c1` (stereo unspecified) stands inactive: 14.5%. For `CN1CCCC(OC(=O)C(c2ccccc2)c2ccccc2)C1` (stereo unspecified), the inhibition is inactive: 11.2%. Under `COc1ccccc1OP(=O)(Nc1ccc(C)cn1)Oc1ccccc1OC` stands inactive: 4.86%. As for `Cc1ccc(OP(=O)(Nc2nccs2)Oc2ccc(C)cc2)cc1`, the inhibition is inactive: 7.85%. Take `CN(C(=O)Cc1ccc(Cl)c(Cl)c1)[C@H]1CCCC[C@H]1N1CCCC1`: the inhibition is inactive: 12%.

As usually defined, the inhibition is the drop in the measured response relative to a control, in per cent.

Values taken from PubChem BioAssay AID602396 (The Scripps Research Institute Molecular Screening Center, 2012).
